Reference: US7368582B2, “Amidomethyl-substituted 2-(4-sulfonylamino)-3-hydroxy-3,4-dihydro-2H-chromen-6-yl compounds, a process and intermediates for their production, and pharmaceutical compositions containing them” (Solvay Pharmaceuticals GmbH, priority 2003, dated 2008)

By UniProt entry, the sequences of proteins in these tests, tags left out.
UniProt P22460, whole entry: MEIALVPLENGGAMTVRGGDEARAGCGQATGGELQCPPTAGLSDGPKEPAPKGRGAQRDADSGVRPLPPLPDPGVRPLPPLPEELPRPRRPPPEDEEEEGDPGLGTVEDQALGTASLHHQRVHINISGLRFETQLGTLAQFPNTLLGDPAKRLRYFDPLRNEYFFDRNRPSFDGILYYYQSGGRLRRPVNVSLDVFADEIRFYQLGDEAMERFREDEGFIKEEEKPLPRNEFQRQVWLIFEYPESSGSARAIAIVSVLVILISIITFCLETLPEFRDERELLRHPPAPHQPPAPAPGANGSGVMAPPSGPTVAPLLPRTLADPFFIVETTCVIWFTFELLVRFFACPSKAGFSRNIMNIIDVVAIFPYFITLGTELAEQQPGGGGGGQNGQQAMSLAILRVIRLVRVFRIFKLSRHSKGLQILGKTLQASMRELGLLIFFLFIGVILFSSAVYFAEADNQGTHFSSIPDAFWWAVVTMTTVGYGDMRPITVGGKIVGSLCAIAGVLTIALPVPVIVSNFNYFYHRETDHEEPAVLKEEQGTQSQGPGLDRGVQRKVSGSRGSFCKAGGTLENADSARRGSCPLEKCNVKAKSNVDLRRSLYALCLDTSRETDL

Biological target: T1, Kv 1.5-potassium channel (Homo sapiens, UniProt P22460)
T1 construct: expressed in transfected cells
Test: In-vitro Kv 1.5-potassium channel-blocking effect (Rb+ outflow from CHO cells, atomic absorption spectroscopy)
Assay type: cell-based
Details: CHO cells stably expressing Kv 1.5, read-out: IC50 (Kv1.5-potassium channel-blocking effect, concentration of half-maximum inhibition)
Experimental: 1. In-Vitro Investigation of the Kv 1.5-Potassium Channel-Blocking Effect of the Substances
In this test model, a cell line of egg cells of the Chinese hamster (=“Chinese hamster oocytes”, “CHO”) is used which originates from a single cell and stably expresses the Kv 1.5-channel. By incubation overnight in a nutrient medium containing RbCl or a “loading buffer” (all values in mM: RbCl 5, NaCl 140, CaCl2 2, MgSO4 1, HEPES buffer 10, glucose 5) the aforementioned oocytes are loaded with Rb^+ under the influence of Na^+/K^+-ATPase. […] The extent of the Kv 1.5-potassium channel-blocking effect of the test substances of Formula I is determined by measuring the Rb^+ ion concentration in the liquid surrounding them by means of atomic absorption spectroscopy against a reference standard.
Chinese hamster oocytes (see above) were cultivated in a known, RbCl-containing nutrient medium for CHO-cells and placed in the sample wells of a 96-sample capacity sample plate (“96 well plate”). […] In each case, 80 μl of the liquid surrounding the oocytes from each sample well was then transferred separately to the sample wells of an analysis sample plate, and the Rb^+ ion concentration in the liquids was determined by atomic absorption spectroscopy. […]

How did the pIC50 turn out when CCc1ccc(S(=O)(=O)N[C@@H]2c3cc(CC(=O)NCc4ccccc4)ccc3OC(C)(C)[C@H]2O)cc1 [Example 11] was run?
Its pIC50 is 5.49.

pIC50: −log10 of the molar value.
